Test results as given in patent publication US9353075B2, “Disubstituted beta-lactones as inhibitors of N-acylethanolamine acid amidase (NAAA)” (The Regents of the University of California, priority 2011, dated 2016).

The chains behind the UniProt entries cited, without tags or fusion partners. Residues count along the entry.
UniProt Q02083, 29-359: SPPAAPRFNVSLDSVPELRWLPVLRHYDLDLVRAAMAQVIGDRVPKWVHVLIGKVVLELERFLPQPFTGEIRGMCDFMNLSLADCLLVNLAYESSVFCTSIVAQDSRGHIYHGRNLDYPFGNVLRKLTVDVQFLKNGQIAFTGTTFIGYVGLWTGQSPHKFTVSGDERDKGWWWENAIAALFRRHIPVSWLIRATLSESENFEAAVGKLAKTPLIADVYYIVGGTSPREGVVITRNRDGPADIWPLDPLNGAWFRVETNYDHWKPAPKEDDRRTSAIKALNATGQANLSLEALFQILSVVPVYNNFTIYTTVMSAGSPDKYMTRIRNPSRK
UniProt Q5KTC7, 34-362: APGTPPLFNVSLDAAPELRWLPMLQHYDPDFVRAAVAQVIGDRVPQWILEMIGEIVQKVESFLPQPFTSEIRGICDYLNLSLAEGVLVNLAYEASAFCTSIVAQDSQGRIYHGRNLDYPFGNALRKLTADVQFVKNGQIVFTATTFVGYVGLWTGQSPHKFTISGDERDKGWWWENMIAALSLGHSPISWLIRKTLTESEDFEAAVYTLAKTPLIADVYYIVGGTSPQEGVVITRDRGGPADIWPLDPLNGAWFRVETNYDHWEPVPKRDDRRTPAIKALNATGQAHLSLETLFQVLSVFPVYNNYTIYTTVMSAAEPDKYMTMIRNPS

How the values were obtained:
[1] = molecular target: h-NAAA (Homo sapiens (Human), UniProt Q02083); assay: Fluorogenic h-NAAA assay; assay type: biochemical
Description: The assay was run in Optiplate 96-wells black plates, in a total reaction volume of […]. NAAA protein preparations (4 ng) were pre-incubated for 10 minutes with various concentrations of test compounds or vehicle control (5% DMSO) in 100 mM citrate/phosphate buffer (pH 4.5) containing 3.0 mM DTT, 0.1% Triton X-100, 0.05% BSA, 150 mM NaCl. N-(4-methyl-2-oxo-chromen-7-yl)-hexadecanamide was used as a substrate (5.0 μM) and the reaction carried over for 30 minutes at 37° C. Fluorescence in the samples was quantified in a Perkin Elmer Envision plate reader using an excitation wavelength of 360 nm and emission 460 nm. IC50 values were calculated by non-linear regression analysis of log [concentration]/inhibition curves using GraphPad Prism 5 (GraphPad Software Inc., CA—USA) applying a standard slope curve fitting.
The assay was run in Optiplate 96-wells black plates, in a total reaction volume of 200 μL. […] The samples were then read in a Perkin Elmer Envision plate reader using an excitation wavelength of 360 nm and emission 460 nm. IC50 values were calculated by non-linear regression analysis of log [concentration]/inhibition curves using GraphPad Prism 5 (GraphPad Software Inc., CA—USA) applying a standard slope curve fitting.

[2] = molecular target: r-NAAA (Rattus norvegicus (Rat), UniProt Q5KTC7); assay: r-NAAA inhibition, rat lung lysosomal NAAA preparation, UPLC/MS; assay type: biochemical
Description: Lysosomal NAAA protein preparation were obtained by homogenizing male Sprague-Dawley rat lungs (Charles River) in 20 mM Tris-HCl buffer pH 7.4 containing 0.32M sucrose. Samples were centrifuged at 800×g for 15 minutes at 4° C. Supernatants were then centrifuged at 12,000 g for 30 minutes at 4° C. Pellets were then resuspended in PBS pH 7.4 and subjected to a freeze/thaw cycle at −80° C. The suspension was finally centrifuged at 105,000×g for 1 hour at 4° C. The supernatant was then used in the enzymatic assay.
NAAA protein preparation was pre-incubated with various concentrations of test compounds or vehicle control in 100 mM NaH2PO4/Citrate buffer, 1% Triton-X, 3 mM DTT (pH 4.5) for 30 minutes at 37° C. Samples were then incubated with heptadecenoylethanolamide (50 μM, Avanti Polar Lipids) at 37° C. for 30 min. […] Samples were then analyzed by UPLC/MS (Acquity, Waters). […] The [M−H]^− ion was monitored in the selected-ion monitoring mode (m/z values: heptadecenoic acid 267.37, heptadecanoic acid 269.37). […] Inhibition of NAAA activity was calculated as reduction of heptadecenoic acid in the samples compared to vehicle controls. IC50 values were calculated by non-linear regression analysis of log [concentration]/inhibition curves using GraphPad Prism 5 (GraphPad Software Inc., CA—USA) applying a standard slope curve fitting.

Work on `CC(C)[C@@H]1OC(=O)[C@@H]1NC(=O)OCCCCCc1ccccc1` (relative stereo) [Example 53, 5-Phenylpentyl-N-[(2S*,3R*)-2-isopropyl-4-oxo-oxetan-3-yl]-carbamate] yielded an IC50 [1] of 0.068 µM.
`C[C@@H]1OC(=O)[C@@H]1NC(=O)OCC(C)(C)CCc1ccccc1` [Example 20, (2,2-dimethyl-4-phenyl-butyl)-N-[(2S,3R)-2-methyl-4-oxo-oxetan-3-yl]-carbamate] was tested, and the IC50 [2] was 3.43 µM.
`C[C@@H]1OC(=O)[C@@H]1NC(=O)OC1CCCCC1` [Example 29, Cyclohexyl-N-[(2S,3R)-2-methyl-4-oxooxetan-3-yl]-carbamate] showed an IC50 [2] of 5.42 µM.
Work on `CC(C)[C@H]1OC(=O)[C@@H]1NC(=O)OCCCCCc1ccccc1` (relative stereo) [Example 51, 5-Phenylpentyl-N-[(2R*,3R*)-2-isopropyl-4-oxo-oxetan-3-yl]-carbamate] yielded an IC50 [1] of 0.019 µM.
